Assay results taken from paper PMC9412555, “Benzothiazole Derivatives Endowed with Antiproliferative Activity in Paraganglioma and Pancreatic Cancer Cells: Structure–Activity Relationship Studies and Target Prediction Analysis” (Pharmaceuticals, 2022).

System: HFF-1
Assay: MTT cell viability assay, normal fibroblasts HFF-1
Type: cell-based, human
Details: 72 h
Experimental: Compounds 4a–p were submitted to a preliminary MTT assay at a one-point screening concentration of 75 μM for 72 h, including 2b as a reference compound (Figure 3). […] The presence of the electron-donating methoxy group decreased the activity of 2b, in both the para and meta positions. […] Specifically, these compounds, namely 4d, 4e, 4f, 4h, 4i, 4j, 4k, 4l, and 4m, were tested at concentrations of 3, 6, 12 and 24 µM for 72 h. In addition, the nine compounds, together with 2b, were tested against human fibroblasts HFF-1, in order to evaluate their selectivity against tumor cells, as compared to normal cells. Effects on cancer or normal cell viability were extrapolated from concentration–response curves and are expressed as IC50 values in Table 2.
Pancreatic cancer (AsPC-1, BxPC-3, and Capan-2), paraganglioma (PTJ86i and PTJ64i) and normal fibroblast (HFF-1) cell lines were cultured as previously described. All compounds were dissolved in DMSO (stock solutions) and then diluted in culture media to the final working concentrations. […]
IC50 values were extrapolated from concentration–response curves and calculated using the CompuSyn software. The interactions between compound 4l and gemcitabine were assessed by calculating the CI values using the CompuSyn software. […] SI values were calculated as previously described. […]

Nc1ccn([C@@H]2O[C@H](CO)[C@@H](O)C2(F)F)c(=O)n1 [GEM, gemcitabine, reference compound]
Inhibition Rate of Cell Viability (HFF-1, GEM 0.1 µM): 27.39%
Inhibition Rate of Cell Viability (HFF-1, GEM 1 µM): 25.43%
